{
  "source": "patent US5085739A",
  "about": "“Separation of the propyl alcohols from water by azeotropic or extractive distillation” (priority 1991, dated 1992)",
  "key": {"[1]": {"assay": "glass perforated plate rectification column (7.3 theoretical plates), isopropanol from water", "type": "physicochemical", "conditions": "azeotropic mode, 8 hrs"}, "[2]": {"assay": "vapor-liquid equilibrium still, n-propanol-water azeotrope with agent", "conditions": "n-propanol from water"}, "[3]": {"assay": "vapor-liquid equilibrium still, isopropanol-water azeotrope with agent", "conditions": "isopropanol from water, agent in vapor-liquid equilibrium still, water as overhead"}, "[4]": {"assay": "glass perforated plate rectification column, n-propanol from water", "type": "physicochemical", "conditions": "extractive mode, 2 hrs, * n-propanol comes off as overhead"}},
  "data": [
    {"molecule": "C=COCCCC", "values": [
      {"measurement": "Relative Volatility", "setting": "[1]", "result": 1.33},
      {"measurement": "Relative Volatility", "setting": "[2]; azeotropic distn.", "result": 3.0},
      {"measurement": "Relative Volatility", "setting": "[3]", "result": 1.83}
    ]},
    {"molecule": "c1ccc(COCc2ccccc2)cc1", "note": "[Benzyl ether]", "values": [
      {"measurement": "Relative Volatility", "setting": "[3]", "result": 1.41}
    ]},
    {"molecule": "C=COCC(C)C", "note": "[Vinyl isobutyl ether]", "values": [
      {"measurement": "Relative Volatility", "setting": "[2]; azeotropic distn.", "result": 2.7},
      {"measurement": "Relative Volatility", "setting": "[3]", "result": 1.57}
    ]},
    {"molecule": "CCCCCCCCCC(C)=O", "note": "[2-Undecanone]", "values": [
      {"measurement": "Relative Volatility", "setting": "[3]", "result": 1.26}
    ]},
    {"molecule": "CC(=O)OCC(C)C", "note": "[Isobutyl acetate]", "values": [
      {"measurement": "Relative Volatility", "setting": "[4]", "result": 1.21},
      {"measurement": "Relative Volatility", "setting": "[2]; extractive distn., * brings n-propanol out as overhead", "result": 1.3},
      {"measurement": "Relative Volatility", "setting": "[3]", "result": 1.24}
    ]},
    {"molecule": "CCCCCC(=O)OCC", "note": "[Ethyl caproate]", "values": [
      {"measurement": "Relative Volatility", "setting": "[3]", "result": 1.56}
    ]},
    {"molecule": "Butoxypropanol", "values": [
      {"measurement": "Relative Volatility", "setting": "[2]; extractive distn., water as overhead", "result": 2.2}
    ]},
    {"molecule": "CCCCO", "note": "[1-Butanol]", "values": [
      {"measurement": "Relative Volatility", "setting": "[3]", "result": 1.43}
    ]}
  ]
}
